This data set in a line: Qualitative solubility of salt forms in solvent systems (appearance at attempted concentration). Format: physicochemical.

Consider `C=C(C)[C@@H]1CC[C@]2(C(=O)[O-])CC[C@]3(C)[C@H](CC[C@@H]4[C@@]5(C)CC[C@H](OC(=O)CC(C)(C)C(=O)[O-])C(C)(C)[C@@H]5CC[C@]43C)[C@@H]12.[Na+].[Na+]` [DSB-(Na)2, di-sodium salt of 3-O-(3′,3′-dimethylsuccinyl)betulinic acid], for which the Appearance entry by setting is: (Hydroxypropyl-β-cyclodextrin 10% (in water), attempted 15.1 mg/mL) “Solution clear”; (Hydroxypropyl-β-cyclodextrin 10% (in water), attempted 27.7 mg/mL) “cloudy”; (Hydroxypropyl-β-cyclodextrin 10% (in water), attempted 27.7 mg/mL, listed as DSB—(Na)2) “Solution cloudy”; (Hydroxypropyl-β-cyclodextrin 20% (in water), attempted 27.9 mg/mL) “Solution clear”.
As to `C=C(C)[C@@H]1CC[C@]2(C(=O)[O-])CC[C@]3(C)[C@H](CC[C@@H]4[C@@]5(C)CC[C@H](OC(=O)CC(C)(C)C(=O)[O-])C(C)(C)[C@@H]5CC[C@]43C)[C@@H]12.[K+].[K+]` [DSB-K2, di-potassium salt of 3-O-(3′,3′-dimethylsuccinyl) betulinic acid], the Appearance result (Hydroxypropyl-β-cyclodextrin 10% (in water), attempted 29.0 mg/mL) is “Solution clear”; the Appearance entry (Water 84%, PEG 400 12%, Ethanol 4%, attempted 42.2 mg/mL) was “Solution cloudy”; the Appearance result (Water 100%, attempted 3.5 mg/mL) is listed as “Solution cloudy”.

Source of the values: patent publication US20120214775A1, “Pharmaceutical Salts of 3-O-(3',3'-Dimethylsuccinyl) Betulinic Acid” (priority 2004, published 2012).
